{
  "source": "patent US10335367B2",
  "about": "“Use of selected anticholinergic zwitterions” (Bodor Laboratories, Inc., priority 2015, dated 2019)",
  "origin": "cited, not measured here",
  "details": "rabbit, in vivo, cited from earlier work",
  "note": "Where two headings read alike, the source gives them in different places.",
  "data": [
    {"compound": "C[N+]1(CC(=O)[O-])CCC(OC(=O)[C@](O)(c2ccccc2)C2CCCC2)C1", "note": "(some centres unmarked)", "values": [
      {"measurement": "elimination from systemic circulation", "value": "rapid elimination from systemic circulation"},
      {"measurement": "elimination from systemic circulation", "setting": "listed as compound (ii)", "value": "rapid elimination from the systemic circulation"}
    ]}
  ]
}
